How the values were obtained:
[1] = target: CCK1R TM2 (N2.61T) (Homo sapiens, UniProt P32238, N98T); experiment: Intracellular calcium response, chimeric receptor CHO cells; assay type: cell-based
[2] = target: T1, CCK1R TM6 (I6.51V, F6.52Y) (Homo sapiens, UniProt P32238, F330Y/I329V); experiment: as above; assay type: cell-based
[3] = target: T1, CCK1R TM6 (I6.51V, F6.52Y); experiment: Competition binding with 125I-CCK

Chains of the proteins cited; added tags and fusions are not shown.
UniProt P32238, whole entry N98T: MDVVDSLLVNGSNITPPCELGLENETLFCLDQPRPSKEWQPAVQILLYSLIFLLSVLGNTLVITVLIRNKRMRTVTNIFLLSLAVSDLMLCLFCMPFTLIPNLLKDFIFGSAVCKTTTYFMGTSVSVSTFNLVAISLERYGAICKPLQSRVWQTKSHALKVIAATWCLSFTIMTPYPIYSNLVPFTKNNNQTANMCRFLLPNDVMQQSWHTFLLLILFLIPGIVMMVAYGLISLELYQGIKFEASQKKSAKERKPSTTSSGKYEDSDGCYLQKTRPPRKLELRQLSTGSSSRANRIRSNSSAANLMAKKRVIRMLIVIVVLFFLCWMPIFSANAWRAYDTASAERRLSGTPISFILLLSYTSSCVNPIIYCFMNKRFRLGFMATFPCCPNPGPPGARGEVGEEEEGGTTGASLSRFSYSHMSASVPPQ
UniProt P32238, whole entry I329V/F330Y: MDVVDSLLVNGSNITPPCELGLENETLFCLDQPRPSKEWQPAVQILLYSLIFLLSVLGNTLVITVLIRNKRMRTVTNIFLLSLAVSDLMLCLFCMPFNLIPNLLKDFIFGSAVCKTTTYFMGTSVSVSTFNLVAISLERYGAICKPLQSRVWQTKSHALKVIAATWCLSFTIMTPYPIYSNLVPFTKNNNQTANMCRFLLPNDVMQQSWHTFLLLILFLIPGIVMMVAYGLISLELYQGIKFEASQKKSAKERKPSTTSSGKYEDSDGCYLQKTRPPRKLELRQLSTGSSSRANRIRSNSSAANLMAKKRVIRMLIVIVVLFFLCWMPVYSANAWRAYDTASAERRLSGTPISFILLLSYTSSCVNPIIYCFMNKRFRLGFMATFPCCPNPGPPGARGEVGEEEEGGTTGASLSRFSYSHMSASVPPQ

| EC50 [1] | EC50 [2] | IC50 [3] | SMILES |
| --- | --- | --- | --- |
| 0.525 nM | 41.7 nM | – | CC(C)N(Cc1ccccc1)C(=O)CN1C(=O)[C@@H](Cc2c[nH]c3ccccc23)c2nnc(-c3ccccc3)n2-c2ccccc21 [CE-326597, N-benzyl-2-[(4S)-4-(1H-indol-3-ylmethyl)-5-oxo-1-phenyl-4,5-dihydro-6H-[1,2,4]triazolo[4,3-a][1,5]benzodiazepin-6-yl]-N-isopropylacetamide] |
| 0.288 nM | 69.2 nM | 70.8 nM | Cc1cc(C)cc(C[C@H]2CCCCN2C(=O)CN2C(=O)[C@@H](Cc3n[nH]c4ccccc34)c3nnc(-c4ccccc4)n3-c3ccccc32)c1 [PF-04756956, (4S)-6-{2-[(2R)-2-(3,5-dimethylbenzyl)piperidin-1-yl]-2-oxoethyl}-4-(1H-indazol-3-ylmethyl)-1-phenyl-4H-[1,2,4]triazolo[4,3-a][1,5]benzodiazepin-5(6H)-one] |
